Laboratory results from publication PMC6789111, “Crossing the blood-brain-barrier with nanoligand drug carriers self-assembled from a phage display peptide” (Nature Communications, 2019).

System: hCMEC/D3 cells
Assay: Uptake with internalisation inhibitors
Settings: IMC (indomethacin 200 μM), 8 h, 37 °C; replicate 3

Transferrin: Texas Red-labelled transferrin, TfR substrate, positive control [reference compound]
Mean flouresence (%), uptake vs Control (no inhibitor): 92.98%
